Data on three molecules can be found in US9822179B2, “Recombinant TNF ligand family member polypeptides with antibody binding domain and uses therefor” (UNIVERSITAT STUTTGART, priority 2011, dated 2017).

Protein sequences, listed by entry. Tags and fused reporters are not part of them. Residues count along the entry.
UniProt P07724, 25-608: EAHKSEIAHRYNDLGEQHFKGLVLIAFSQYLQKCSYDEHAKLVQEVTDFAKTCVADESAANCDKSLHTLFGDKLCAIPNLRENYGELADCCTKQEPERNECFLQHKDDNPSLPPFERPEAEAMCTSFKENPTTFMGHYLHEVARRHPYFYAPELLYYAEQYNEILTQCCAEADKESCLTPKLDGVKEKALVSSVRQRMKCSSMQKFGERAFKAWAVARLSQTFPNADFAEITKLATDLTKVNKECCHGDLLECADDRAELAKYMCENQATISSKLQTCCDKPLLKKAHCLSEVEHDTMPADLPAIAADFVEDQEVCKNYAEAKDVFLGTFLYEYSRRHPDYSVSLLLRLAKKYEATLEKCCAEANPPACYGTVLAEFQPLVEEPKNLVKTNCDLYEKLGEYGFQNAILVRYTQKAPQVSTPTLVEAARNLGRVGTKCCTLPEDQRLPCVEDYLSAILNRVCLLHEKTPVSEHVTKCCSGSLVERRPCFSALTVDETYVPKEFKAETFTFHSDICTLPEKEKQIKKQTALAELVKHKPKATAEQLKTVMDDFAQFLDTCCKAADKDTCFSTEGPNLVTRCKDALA

Experiment [1] has as its system EGFR+ Huh-7 hepatocellular carcinoma cells. In words: EGFR-directed induction of cell death in Huh-7 cells, serial dilutions of protein, crystal violet. Type of experiment: cell-based. How it is done: After 16 h, cell viability was determined using MTT staining (Colo 205) or crystal violet staining (Huh-7) and data were normalized using bortezomib-treated cells as control (mean SEM, n=3). (B) 1×10^4 Colo205 cells per well were grown in 96-well plates using medium with 0.1% FCS. […] (C) 1×10^4 Huh-7 cells per well were grown in 96-well plates and treated with 20 ng/ml bortezomib or with a combination of bortezomib and 10 μM zVADfmk.
After 16 h, cell viability was determined using crystal violet staining. […] The values for SEQ ID NO: 102 were plotted in both panels for comparison.
(§1) As a positive control, cells were killed with 0.25% Triton X-100. Cell death assays with Huh-7 and HepG2 cells were performed in the absence (FIG. 6, Jurkat cells) or presence of Bortezomib (FIG. 7, Huh-7: 250 ng/ml, FIG. 6, HepG2: 500 ng/ml, FIG. 18, Huh-7: 250 ng/ml), Selleck Chemicals, Houston, Tex.). Bortezomib was added 30 min prior incubation with the proapoptotic ligands to sensitize cells for the induction of cell death (FIGS. 6, 7). Alternatively, cells were preincubated for 30 min with the indicated concentrations of TRAIL fusion proteins followed by addition of serial dilutions of Bortezomib (FIG. 8). TRAIL only treated cells are shown in each panel for the applied TRAIL concentration (Bortezomib 0 ng/ml) (FIG. 8). After 16 h incubation, cell viability was determined either by crystal violet staining (Huh-7, HepG2) or the MTT method (Jurkat) (Wuest et al., 2002). In the latter case a lysis buffer consisting of 15% SDS in DMF/H2O (1:1), pH 4.5 (with […]) acetic acid) was used.

For experiment [2], the target named is human serum albumin (HSA) (Homo sapiens, UniProt P02768). The experiment in a line: Albumin binding assay by size exclusion chromatography, HSA. The conditions noted are these: 1 h at RT, equimolar HSA. How it is done: (§2) Both proteins were incubated for 1 h at RT with equimolar concentrations of human serum albumin (HSA) or mouse serum albumin (MSA) and subsequently separated by size exclusion chromatography. Thyroglobulin (669 kDa), apoferritin (443 kDa), -amylase (200 kDa), bovine serum albumin (67 kDa), carbonic anhydrase (29 kDa) and FLAG peptide (1 kDa) were used as standard proteins/peptides.
In general terms: SEC sorts molecules by how far they enter the pores of the column.

The target in experiment [3] is mouse serum albumin (MSA) (Mus musculus, UniProt P07724). In words: Albumin binding assay by size exclusion chromatography, MSA. The conditions noted are these: 1 h at RT, equimolar MSA. How it is done:
as §2

A further experiment concerns Colo205 xenograft tumor. The experiment in a line: Colo205 xenograft tumor model. The note with it: 8 daily i.p. injections of 0.45 nmol + bortezomib every second day.
The subject of experiment [4] is EGFR low/negative HepG2 cells. The experiment in a line: Target-independent induction of cell death, HepG2, crystal violet. It is filed as cell-based. How it is done:
(§3) Cell viability was determined using crystal violet staining. Results from four independent experiments are shown (mean±S.E.M.). (B) Jurkat cells (1×10^5/well) were used for a similar experiment as described in (A). Jurkat cells were not sensitized. Results from three independent experiments are shown (mean±S.E.M.). Viability of Jurkat cells was determined using the MTT assay.
as §1

The test system of another experiment is Jurkat cells. The experiment in a line: Target-independent induction of cell death, Jurkat, MTT assay. It is filed as cell-based. The note with it: not sensitized; SEQ ID NO: 102 compared to KillerTRAIL. How it is done:
as §3, §1

The test system of experiment [5] is Huh-7 hepatocellular carcinoma cells. In words: Cell death in Huh-7 cells, constant protein concentration, serial dilutions of Bortezomib. It is filed as cell-based. The procedure: FIG. 8: EGFR-directed induction of cell death in Huh-7 hepatocellular carcinoma cells as in FIG. 7 with the exception that constant concentrations of the test proteins were used for preincubation (30 min), followed by addition of serial dilutions of Bortezomib. Control: Bortezomib alone. Results from three independent experiments are shown (mean±S.E.M.).
as §1

The next experiment concerns EGFR+ Huh-7 cells. The experiment in a line: Binding of scTRAIL fusion proteins to Huh-7 cells, flow cytometry with competition. The note with it: 2 μg/ml fusion protein. The procedure:
(§4) “scFv” represents an anti-EGFR specific antibody fragment used for competition.
(§5) 5×10^5 cells were suspended in PBA buffer (PBS, 0.025% BSA, 0.02% sodium azide) and incubated for 1 h at 4° C. with the indicated scTRAIL fusion proteins (2 μg/ml). After washing the cells three times with PBA buffer, bound fusion proteins were detected by anti-human TRAIL mAb MAB687 (2.5 μg/ml, R&D Systems) and fluorescein isothiocyanate-labelled rabbit anti-mouse IgG Ab (1:200, Sigma-Aldrich), followed by three washing steps with PBA each. […] Expression of TRAIL receptors was detected by anti-TRAIL R1 mAb MAB347 and anti-TRAIL R2 mAb MAB6311 (4 μg/ml each, R&D Systems) in conjunction with anti-mouse IgG-FITC. EGFR expression was detected by a phycoerythrin-labelled anti-human EGFR mAb sc-101 (4 μg/ml, Santa Cruz Biotech., Santa Cruz, Calif.) (see FIG. 4).
In general terms: Flow cytometry measures light scatter and fluorescence of single cells or particles in a stream.

The subject of experiment [6] is EGFR low/neg. HepG2 cells. The experiment in a line: Binding of scTRAIL fusion proteins to HepG2 cells, flow cytometry with competition. The note with it: 2 μg/ml fusion protein. How it is done: as §4, §5

B1: SEQ ID NO: 126: dimeric EGFR-specific TRAIL fusion protein with albumin binding domain (ABD) at the C-terminus (protein)
chain: MDWTWRVFCLLAVAPGAHSLEASDYKDDDDKGAEVQLVESGGGLVQPGGSLRLSCAASGFSLTNYGVHWVRQAPGKGLEWLGVIWSGGNTDYNTPFTSRFTISRDNSKNTLYLQMNSLRAEDTAVYYCARALTYYDYEFAYWGQGTTVTVSSGGGGSDIQLTQSPSFLSASVGDRVTITCRASQSIGTNIHWYQQKPGKAPKLLIKYASESISGVPSRFSGSGSGTEFTLTISSLQPEDFATYYCQQNNNWPTTFGAGTKLEIKRAAAGNGTSNGTSEFTRGTSEETISTVQEKQQNISPLVRERGPQRVAAHITGTRGRSNTLSSPNSKNEKALGRKINSWESSRSGHSFLSNLHLRNGELVIHEKGFYYIYSQTYFRFQEEIKENTKNDKQMVQYIYKYTSYPDPILLMKSARNSCWSKDAEYGLYSIYQGGIFELKENDRIFVSVTNEHLIDMDHEASFFGAFLVGGGGSGGGSTSEETISTVQEKQQNISPLVRERGPQRVAAHITGTRGRSNTLSSPNSKNEKALGRKINSWESSRSGHSFLSNLHLRNGELVIHEKGFYYIYSQTYFRFQEEIKENTKNDKQMVQYIYKYTSYPDPILLMKSARNSCWSKDAEYGLYSIYQGGIFELKENDRIFVSVTNEHLIDMDHEASFFGAFLVGGGGSGGGSTSEETISTVQEKQQNISPLVRERGPQRVAAHITGTRGRSNTLSSPNSKNEKALGRKINSWESSRSGHSFLSNLHLRNGELVIHEKGFYYIYSQTYFRFQEEIKENTKNDKQMVQYIYKYTSYPDPILLMKSARNSCWSKDAEYGLYSIYQGGIFELKENDRIFVSVTNEHLIDMDHEASFFGAFLVGGGSGGQHDEAVDANSLAEAKVLANRELDKYGVSDYYKNLINNAKTVEGVKALIDEILAALP
modifications: VH-VL(EGFR)-Glyco-scTrail-ABD
Turning to B1, the “bioactivity compared to SEQ ID NO: 102” value in experiment [1] (250 ng/ml bortezomib, 16 h) is recorded as “bioactivity comparable to the dimeric TRAIL fusion protein lacking an ABD”. The albumin binding result in [2] and in experiment [3] was “verified” each time.

B2: SEQ ID NO: 97: variant of SEQ ID NO: 96 whose linker X comprises two N-glycosylation sites; monomeric glycosylated, monovalent TRAIL fusion protein (protein)
chain: MDWTWRVFCLLAVAPGAHSLEASDYKDDDDKGAEVQLVESGGGLVQPGGSLRLSCAASGFSLTNYGVHWVRQAPGKGLEWLGVIWSGGNTDYNTPFTSRFTISRDNSKNTLYLQMNSLRAEDTAVYYCARALTYYDYEFAYWGQGTTVTVSSGGGGSGGGGSGGGGSDIQLTQSPSFLSASVGDRVTITCRASQSIGTNIHWYQQKPGKAPKLLIKYASESISGVPSRFSGSGSGTEFTLTISSLQPEDFATYYCQQNNNWPTTFGAGTKLEIKRAAAGNGTSNGTSEFTRGTSEETISTVQEKQQNISPLVRERGPQRVAAHITGTRGRSNTLSSPNSKNEKALGRKINSWESSRSGHSFLSNLHLRNGELVIHEKGFYYIYSQTYFRFQEEIKENTKNDKQMVQYIYKYTSYPDPILLMKSARNSCWSKDAEYGLYSIYQGGIFELKENDRIFVSVTNEHLIDMDHEASFFGAFLVGGGGSGGGSTSEETISTVQEKQQNISPLVRERGPQRVAAHITGTRGRSNTLSSPNSKNEKALGRKINSWESSRSGHSFLSNLHLRNGELVIHEKGFYYIYSQTYFRFQEEIKENTKNDKQMVQYIYKYTSYPDPILLMKSARNSCWSKDAEYGLYSIYQGGIFELKENDRIFVSVTNEHLIDMDHEASFFGAFLVGGGGSGGGSTSEETISTVQEKQQNISPLVRERGPQRVAAHITGTRGRSNTLSSPNSKNEKALGRKINSWESSRSGHSFLSNLHLRNGELVIHEKGFYYIYSQTYFRFQEEIKENTKNDKQMVQYIYKYTSYPDPILLMKSARNSCWSKDAEYGLYSIYQGGIFELKENDRIFVSVTNEHLIDMDHEASFFGAFLVG
modifications: N-glycosylated; VH-VL(EGFR)-scTRAIL fusion protein with glycosylation motif
As to B2, the “bioactivity in relation to SEQ ID NO: 96” value in [1] (250 ng/ml Bortezomib) was “identical bioactivity”. Besides, in the experiment on Colo205 xenograft tumor, the “effect on tumor growth” value was “delayed tumor growth” and the regression of tumors result is listed as “did not induce regression of tumors”.

B3: SEQ ID NO: 96: EGFR-specific VH-VL-scTRAIL fusion protein, (GGGGS)3 linker L between VH and VL, FLAG tag; monomeric (protein)
chain: MDWTWRVFCLLAVAPGAHSLEASDYKDDDDKGAEVQLVESGGGLVQPGGSLRLSCAASGFSLTNYGVHWVRQAPGKGLEWLGVIWSGGNTDYNTPFTSRFTISRDNSKNTLYLQMNSLRAEDTAVYYCARALTYYDYEFAYWGQGTTVTVSSGGGGSGGGGSGGGGSDIQLTQSPSFLSASVGDRVTITCRASQSIGTNIHWYQQKPGKAPKLLIKYASESISGVPSRFSGSGSGTEFTLTISSLQPEDFATYYCQQNNNWPTTFGAGTKLEIKRAAAEFTRGTSEETISTVQEKQQNISPLVRERGPQRVAAHITGTRGRSNTLSSPNSKNEKALGRKINSWESSRSGHSFLSNLHLRNGELVIHEKGFYYIYSQTYFRFQEEIKENTKNDKQMVQYIYKYTSYPDPILLMKSARNSCWSKDAEYGLYSIYQGGIFELKENDRIFVSVTNEHLIDMDHEASFFGAFLVGGGGSGGGSTSEETISTVQEKQQNISPLVRERGPQRVAAHITGTRGRSNTLSSPNSKNEKALGRKINSWESSRSGHSFLSNLHLRNGELVIHEKGFYYIYSQTYFRFQEEIKENTKNDKQMVQYIYKYTSYPDPILLMKSARNSCWSKDAEYGLYSIYQGGIFELKENDRIFVSVTNEHLIDMDHEASFFGAFLVGGGGSGGGSTSEETISTVQEKQQNISPLVRERGPQRVAAHITGTRGRSNTLSSPNSKNEKALGRKINSWESSRSGHSFLSNLHLRNGELVIHEKGFYYIYSQTYFRFQEEIKENTKNDKQMVQYIYKYTSYPDPILLMKSARNSCWSKDAEYGLYSIYQGGIFELKENDRIFVSVTNEHLIDMDHEASFFGAFLVG
modifications: VH-VL(EGFR)-scTRAIL fusion protein
notes: EGFR-specific VH-VL-scTRAIL fusion protein, (GGGGS)3 linker L between VH and VL, FLAG tag; monomeric
In the case of B3, the “influence of excess Cetuximab on apoptosis inducing activity” value in [4] (70 nM Cetuximab, at least 7-fold excess) is on record as “not influenced”. Further, the “bioactivity on target negative cells, comparison in words” value in experiment [4] (comparator named in value) is recorded as “did not differ from the one of SEQ ID NO: 104”. Besides, the “apoptosis-inducing activity on Jurkat cells” value in the experiment with Jurkat cells was “no reactivity”. Moreover, the “apoptosis-inducing activity compared to scTRAIL (SEQ ID NO: 104)” value in [1] (250 ng/ml Bortezomib) is listed as “tenfold”. Also, the “synergy with Bortezomib” value in [5] (protein concentration of 0.05 nM) is recorded as “able to synergize with Bortezomib”. Also, the “induction of apoptosis when sensitized with Bortezomib” value in experiment [5] (protein concentration of 1 nM and above) is reported as “nearly equally efficient in induction of complete apoptosis”. Also, the “binding to Huh-7 cells, competition by excess of anti-EGFR specific antibody fragment” value with EGFR+ Huh-7 cells is on record as “partially blockable”. The “binding to HepG2 cells, competition by anti-EGFR huC225” value in experiment [6] is “weaker and non-blockable binding”.
